Amino acid sequences for entries named in this document (tags omitted).
UniProt P23219, whole entry: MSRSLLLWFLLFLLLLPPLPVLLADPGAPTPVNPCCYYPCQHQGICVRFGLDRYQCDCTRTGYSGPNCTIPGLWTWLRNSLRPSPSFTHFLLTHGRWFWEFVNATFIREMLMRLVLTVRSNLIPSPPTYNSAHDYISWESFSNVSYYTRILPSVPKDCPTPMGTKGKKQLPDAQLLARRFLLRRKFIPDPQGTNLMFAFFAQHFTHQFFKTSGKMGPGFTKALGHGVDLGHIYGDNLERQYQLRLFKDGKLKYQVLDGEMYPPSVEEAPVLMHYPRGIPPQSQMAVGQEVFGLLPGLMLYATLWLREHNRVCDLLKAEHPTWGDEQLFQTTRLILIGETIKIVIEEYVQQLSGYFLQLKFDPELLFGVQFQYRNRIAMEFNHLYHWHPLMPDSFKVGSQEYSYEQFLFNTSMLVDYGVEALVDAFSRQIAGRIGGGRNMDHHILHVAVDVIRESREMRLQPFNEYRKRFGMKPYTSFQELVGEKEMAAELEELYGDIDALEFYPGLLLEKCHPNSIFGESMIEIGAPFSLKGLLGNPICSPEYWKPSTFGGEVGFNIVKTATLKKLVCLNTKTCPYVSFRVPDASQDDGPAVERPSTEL

In ChEMBL document CHEMBL1132626 (J Med Chem, 1999):

Target: Prostaglandin G/H synthase 1 (Homo sapiens, UniProt P23219)

## CS(=O)(=O)c1ccc(C2=C(Oc3ccccc3)C(=O)CC2)cc1
  IC50: 11 µM
